Experimental data: patent US20230028476A1 (EVOTEC INTERNATIONAL, published 2023)

Amino acid sequences for entries named in this document (tags omitted). Residues count along the entry.
UniProt P25942, 21-277: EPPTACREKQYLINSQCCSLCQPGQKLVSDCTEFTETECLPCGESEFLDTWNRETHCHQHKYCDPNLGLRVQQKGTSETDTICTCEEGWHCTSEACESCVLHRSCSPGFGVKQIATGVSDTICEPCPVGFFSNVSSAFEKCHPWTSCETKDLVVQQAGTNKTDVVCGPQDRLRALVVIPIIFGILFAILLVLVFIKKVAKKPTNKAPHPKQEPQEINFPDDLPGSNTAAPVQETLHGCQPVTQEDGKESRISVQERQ

What was measured:
human CD40 = human CD40 (human, UniProt P25942); test: cell-based or functional assay
[1] = target: human IFN receptor on HEK-Blue IFN-α/β cells (human); test: cell-based or functional assay

- CD40 EC50 (HEK-Blue CD40L reporter cells) (human CD40): 0.0863 µg/mL
- IFNω EC50 (HEK-Blue IFN-α/β reporter cells) [1]: 0.000493 µg/mL
B1: IFA46 (antibody, human IgG2, kappa)
light: DIQMTQSPSSVSASVGDRVTITCRASQGIYSWLAWYQQKPGKAPNLLIYTASTLQSGVPSRFSGSGSGTDFTLTISSLQPEDFATYYCQQANIFPLTFGGGTKVEIKRTVAAPSVFIFPPSDEQLKSGTASVVCLLNNFYPREAKVQWKVDNALQSGNSQESVTEQDSKDSTYSLSSTLTLSKADYEKHKVYACEVTHQGLSSPVTKSFNRGECGGGGSGGGGSGGGGSGGGGS[gap - about 150 residues]
heavy: QVQLVQSGAEVKKPGASVKVSCKASGYTFTGYYMHWVRQAPGQGLEWMGWINPDSGGTNYAQKFQGRVTMTRDTSISTAYMELNRLRSDDTAVYYCARDQPLGYCTNGVCSYFDYWGQGTLVTVSSASTKGPSVFPLAPCSRSTSESTAALGCLVKDYFPEPVTVSWNSGALTSGVHTFPAVLQSSGLYSLSSVVTVPSSNFGTQTYTCNVDHKPSNTKVDKTVERKCCVECPPCPAPPVAGPSVFLFPPKPKDTLMISRTPEVTCVVVDVSHEDPEVQFNWYVDGVEVHNAKTKPREEQFNSTFRVVSVLTVVHQDWLNGKEYKCKVSNKGLPAPIEKTISKTKGQPREPQVYTLPPSREEMTKNQVSLTCLVKGFYPSDIAVEWESNGQPENNYKTTPPMLDSDGSFFLYSKLTVDKSRWQQGNVFSCSVMHEALHNHYTQKSLSLSPGK
